Literature values in PubChem BioAssay AID977608.
pIC50: −log10 of the molar value.

What was measured:
Test in all cases: protein-ligand inhibition affinities from structures – PDB-derived complexes (AID 977608)
collagenase 3 (mmp-13) = settings: literature IC50, protein: collagenase 3 (mmp-13), chain 1FLS_A, PDB entry 1FLS
[1] = molecular target: peroxisome proliferator activated receptor gamm; settings: literature IC50, protein: peroxisome proliferator activated receptor gamm, chain 1I7I_A, PDB entry 1I7I
[2] = molecular target: peroxisome proliferator activated receptor alph; settings: literature IC50, protein: peroxisome proliferator activated receptor alph, chain 1I7G_A, PDB entry 1I7G
[3] = molecular target: Phosphatidylinositol 4,5-bisphosphate 3-kinase catalytic subunit gamma isoform; settings: literature IC50, protein: Phosphatidylinositol 4,5-bisphosphate 3-kinase catalytic subunit gamma isoform, chain 4G11_A, PDB entry 4G11
tryptophan synthase = settings: literature IC50, protein: tryptophan synthase, chain 1C29_A, PDB entry 1C29
[4] = molecular target: Serine/threonine-protein kinase pim-1; settings: literature IC50, protein: Serine/threonine-protein kinase pim-1, chain 4DTK_A, PDB entry 4DTK
[5] = molecular target: cgmp-inhibited 3',5'-cyclic phosphodiesterase b; settings: literature IC50, protein: cgmp-inhibited 3',5'-cyclic phosphodiesterase b, chain 1SOJ_A, PDB entry 1SOJ
[6] = molecular target: cell division protein kinase 6; settings: literature IC50, protein: cell division protein kinase 6, chain 2F2C_B, PDB entry 2F2C
[7] = molecular target: phosphoenolpyruvate carboxykinase, cytosolic; settings: literature IC50, protein: phosphoenolpyruvate carboxykinase, cytosolic, chain 1NHX_A, PDB entry 1NHX
[8] = molecular target: Bruton's tyrosine kinase (BTK) mutant (F435T,K596R); settings: literature IC50, protein: Bruton's tyrosine kinase (BTK) mutant (F435T,K596R), chain 3T9T_A, PDB entry 3T9T
thrombin light chain = settings: literature IC50, protein: thrombin light chain, chain 2FES_H, PDB entry 2FES
[9] = molecular target: Mitogen-activated protein kinase 13; settings: literature IC50, protein: Mitogen-activated protein kinase 13, chain 4EYJ_A, PDB entry 4EYJ
protein kinase c, iota = settings: literature IC50, protein: protein kinase c, iota, chain 1ZRZ_A, PDB entry 1ZRZ
[10] = molecular target: Proto-oncogene serine/threonine-protein kinase pim-1; settings: literature IC50, protein: Proto-oncogene serine/threonine-protein kinase pim-1, chain 3UMW_A, PDB entry 3UMW
adenosine deaminase = settings: literature IC50, protein: adenosine deaminase, chain 1WXZ_A, PDB entry 1WXZ
acetylcholinesterase = settings: literature IC50, protein: acetylcholinesterase, chain 1ZGB_A, PDB entry 1ZGB
[11] = molecular target: Ubiquitin-conjugating enzyme E2 R1, Human Cdc34 E2; settings: literature IC50, protein: Ubiquitin-conjugating enzyme E2 R1, Human Cdc34 E2, chain 3RZ3_A, PDB entry 3RZ3
[12] = molecular target: PUTATIVE GLUCANOHYDROLASE PEP1A GLGE ISOFORM 1; settings: literature IC50, protein: PUTATIVE GLUCANOHYDROLASE PEP1A GLGE ISOFORM 1, chain 3ZST_B, PDB entry 3ZST
[13] = molecular target: isopentenyl diphosphate delta-isomerase; settings: literature IC50, protein: isopentenyl diphosphate delta-isomerase, chain 1PPW_A, PDB entry 1PPW
[14] = molecular target: Fusion protein of Nociceptin receptor and cytochrome b562; settings: literature IC50, protein: Fusion protein of Nociceptin receptor and cytochrome b562, chain 4EA3_A, PDB entry 4EA3
[15] = molecular target: camp-specific phosphodiesterase 4d; settings: literature IC50, protein: camp-specific phosphodiesterase 4d, chain 1MKD_A, PDB entry 1MKD
[16] = molecular target: Cathepsin B-like peptidase (C01 family); settings: literature IC50, protein: Cathepsin B-like peptidase (C01 family), chain 3S3R_A, PDB entry 3S3R
alpha 1,2-mannosidase = settings: literature IC50, protein: alpha 1,2-mannosidase, chain 1FO3_A, PDB entry 1FO3
[17] = molecular target: adenylate cyclase, type v; settings: literature IC50, protein: adenylate cyclase, type v, chain 1CS4_A,1CS4_B, PDB entry 1CS4
[18] = molecular target: histone acetylatransferase pcaf; settings: literature IC50, protein: histone acetylatransferase pcaf, chain 1WUG_A, PDB entry 1WUG

Compound: COc1ccc(S(=O)(=O)N(Cc2cccnc2)c2c(C)cccc2C(=O)NO)cc1
- pIC50 (collagenase 3 (mmp-13)): 7.48

Compound: CCO[C@@H](Cc1ccc(OCCc2ccc(OS(C)(=O)=O)cc2)cc1)C(=O)O
- pIC50 [1]: 6.70
- pIC50 [2]: 6.00

Compound: O=C(Cc1nc(N2CCOCC2)cc(=O)[nH]1)Nc1ccccc1
- pIC50 [3]: 5.00

Compound: O=P(O)(O)/C=C/CCSc1ccccc1O
- pIC50 (tryptophan synthase): 6.33

Compound: CC(C)Oc1cccc(/C=C2\SC(=O)NC2=O)c1N1CCC[C@@H](N)C1
- pIC50 [4]: 8.52

Compound: CC(C)Cn1c2c(c(=O)n(C)c1=O)=NCN=2
- pIC50 [5]: 6.62

Compound: CC(C)[C@@H](CO)Nc1nc(Nc2cc(N)cc(Cl)c2)c2ncn(C(C)C)c2n1
- pIC50 [6]: 6.35

Compound: C=C(OP(=O)(O)O)C(=O)O
- pIC50 [7]: 5.68

Compound: Cc1ccccc1Nc1nc2cc(F)c(N(C)C(=O)/C=C\CN(C)C)cc2n2cncc12
- pIC50 [8]: 8.71

Compound: N=C(N)c1ccc(CNC(=O)[C@@H]2CCCN2C(=O)[C@@H](CC2CCCCC2)NCC(=O)O)s1
- pIC50 (thrombin light chain): 9.01

Compound: Cn1nc(C(C)(C)C)cc1NC(=O)Nc1ccc(Oc2ccncc2)cc1
- pIC50 [9]: 6.21

Compound: CN(C)CCCn1cc(C2=C(c3c[nH]c4ccccc34)C(=O)NC2=O)c2ccccc21
- pIC50 (protein kinase c, iota): 5.24

Compound: COc1ccc2c(O)c(/C=C3/N=Nc4ccccc43)oc2c1CN1CCNCC1
- pIC50 [10]: 8.52

Compound: C[C@H](O)C(CCc1cccc2nc(-c3ccc(Cl)cc3)oc12)n1cnc(C(N)=O)c1 (stereo not given in full)
- pIC50 (adenosine deaminase): 8.07

Compound: O=c1ccc2c([nH]1)CCC[C@H]2NCCCCCCCCCCNc1c2c(nc3ccccc13)CCCC2
- pIC50 (acetylcholinesterase): 8.06

Compound: COCC(=O)N[C@@H](Cc1ccc(-c2cc(Cl)cc(Cl)c2)cc1)[C@H](O)[C@@H](O)C(=O)O
- pIC50 [11]: 5.76

Compound: OC[C@H]1O[C@@H]2O[C@H]3[C@H](O)[C@@H](O)[C@@H](O[C@H]4[C@H](O)[C@@H](O)[C@@H](O[C@H]5[C@H](O)[C@@H](O)[C@@H](O[C@H]6[C@H](O)[C@@H](O)[C@@H](O[C@H]7[C@H](O)[C@@H](O)[C@@H](O[C@H]1[C@H](O)[C@H]2O)O[C@@H]7CO)O[C@@H]6CO)O[C@@H]5CO)O[C@@H]4CO)O[C@@H]3CO
- pIC50 [12]: 1.72

Compound: C/C(=C\COP(=O)(O)OP(=O)(O)O)CO
- pIC50 [13]: 4.30

Compound: O=C(NCCCN1CCC2(CC1)OCc1ccccc12)[C@H]1CCCN1Cc1ccccc1
- pIC50 [14]: 9.57

Compound: COc1cc(-c2ccc(=O)[nH]n2)ccc1OC(F)F
- pIC50 [15]: 6.80

Compound: CN1CCN(C(=O)N[C@@H](Cc2ccccc2)C(=O)N[C@@H](CCc2ccccc2)CCS(=O)(=O)c2ccccc2)CC1
- pIC50 [16]: 8.68

Compound: O=C1N[C@@H]2[C@@H](O)[C@@H](O)[C@H](O)[C@@H](CO)N2C1=O
- pIC50 (alpha 1,2-mannosidase): 6.70

Compound: Nc1ncnc2c1ncn2[C@H]1C[C@H](OP(=O)(O)O)[C@@H](CO)O1
- pIC50 [17]: 5.57

Compound: Cc1ccc(NCCCN)c([N+](=O)[O-])c1
- pIC50 [18]: 5.80
